Literature values, collected in US12636290B2, “BET inhibitors for modulating DUX4 expression in FSHD” (Saint Louis University, priority 2018, dated 2026).

Amino acid sequences for entries named in this document (tags omitted).
UniProt Q16539, whole entry: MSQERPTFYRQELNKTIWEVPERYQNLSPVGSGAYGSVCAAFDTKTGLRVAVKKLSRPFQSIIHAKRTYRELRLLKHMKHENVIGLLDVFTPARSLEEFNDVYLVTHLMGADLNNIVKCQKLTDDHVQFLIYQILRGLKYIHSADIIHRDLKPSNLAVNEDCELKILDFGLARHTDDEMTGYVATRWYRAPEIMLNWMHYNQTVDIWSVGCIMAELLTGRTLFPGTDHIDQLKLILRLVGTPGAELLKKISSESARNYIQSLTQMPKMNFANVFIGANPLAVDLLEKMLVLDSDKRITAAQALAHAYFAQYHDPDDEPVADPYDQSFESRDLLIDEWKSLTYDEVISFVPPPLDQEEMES

Molecular target: p38α (Homo sapiens, UniProt Q16539)
Settings: p38α versus p38β; cited from earlier work

Question: With `Cn1c(=O)c(Oc2ccc(F)cc2F)cc2cnc(NC(CCO)CCO)nc21` [Pamapimod] as the compound, how does the “selective over p38β” value read?
Answer: p38α, 34X selective over p38β
